Assay results from ChEMBL document CHEMBL1140091, “2-aminothienopyridazines as novel adenosine A1 receptor allosteric modulators and antagonists” (J Med Chem, 2008).
Activity calls are given as the source filed them. No cut-off for these calls is given here.

Protein sequences, listed by entry. Tags and fused reporters are not part of them.
UniProt P30542, whole entry: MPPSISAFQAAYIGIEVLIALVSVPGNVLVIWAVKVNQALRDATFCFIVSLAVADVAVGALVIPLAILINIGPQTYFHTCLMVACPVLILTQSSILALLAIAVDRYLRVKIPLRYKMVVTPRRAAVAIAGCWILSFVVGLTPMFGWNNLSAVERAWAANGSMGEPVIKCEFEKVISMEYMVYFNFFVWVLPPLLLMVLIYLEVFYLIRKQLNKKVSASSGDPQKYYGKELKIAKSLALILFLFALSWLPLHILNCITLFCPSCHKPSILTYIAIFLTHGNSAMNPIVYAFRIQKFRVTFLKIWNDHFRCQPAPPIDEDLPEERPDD

Molecular target: Adenosine receptor A1 (Homo sapiens, UniProt P30542)
Assay: Antagonist activity at human adenosine A1 receptor expressed in FlpIn-CHO cells assessed as inhibition of R-PIA-mediated ERK1/2 phosphorylation
Type: functional, cell-based

Cc1sc(N)c(C(=O)c2cccc(C(F)(F)F)c2)c1C
Activity: inactive

Nc1scc2c(C(=O)O)nn(-c3ccccc3)c(=O)c12
Activity: inactive
